Values of other authors, collected in patent publication US20090226517A1, “PHARMACEUTICAL FORMULATIONS COMPRISING DULOXETINE” (priority 2008, published 2009).

Conditions: background statement

For CNCC[C@H](Oc1cccc2ccccc12)c1cccs1.Cl [Duloxetine hydrochloride, (+)-(S)—N-methyl-γ-(1-naphthyloxy)-2-thiophenepropylamine hydrochloride], the Solubility in water is listed as “slightly soluble in water”.
